Assay results from ChEMBL document CHEMBL1131091, “Discovery of potent, achiral matrix metalloproteinase inhibitors” (J Med Chem, 1998).

The chains behind the UniProt entries cited, without tags or fusion partners. Where a name states a change or a piece, a line headed by the entry shows the natural chain unless it says otherwise.
UniProt P08254: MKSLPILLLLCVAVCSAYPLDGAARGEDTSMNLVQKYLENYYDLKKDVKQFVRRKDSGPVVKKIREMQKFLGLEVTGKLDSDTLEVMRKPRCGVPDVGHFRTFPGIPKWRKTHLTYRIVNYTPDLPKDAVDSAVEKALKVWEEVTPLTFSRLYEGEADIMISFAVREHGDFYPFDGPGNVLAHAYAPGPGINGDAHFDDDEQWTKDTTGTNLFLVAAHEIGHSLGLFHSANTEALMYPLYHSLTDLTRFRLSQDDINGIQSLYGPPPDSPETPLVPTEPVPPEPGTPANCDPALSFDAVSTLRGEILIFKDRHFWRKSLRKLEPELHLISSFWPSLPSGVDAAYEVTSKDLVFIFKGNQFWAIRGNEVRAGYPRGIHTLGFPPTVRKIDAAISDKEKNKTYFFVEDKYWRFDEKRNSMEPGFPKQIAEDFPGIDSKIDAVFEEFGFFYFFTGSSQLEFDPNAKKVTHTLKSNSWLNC

Target: Stromelysin-1 (Homo sapiens, UniProt P08254)
Test: Inhibition of Matrix metalloprotease-3

IC50: 18.4 nM
Structure (SMILES): COc1ccc(S(=O)(=O)N2CC(C)(C)CN(S(=O)(=O)c3ccc(OC)cc3)C2C(=O)NO)cc1
